Key:
[1] = system: human breast cancer MDA-MB-468 cells; assay: Western blotting of MDA-MB-468 cells treated with marinopyrrole derivatives (Mcl-1, Bim, caspase 3); conditions: 10 μM for 16 h
[2] = biological target: Mcl-1/Bim (Homo sapiens, UniProt Q07820); assay: Mcl-1/Bim ELISA (GST-Mcl-1 binding to biotinylated Bim BH3 peptide); conditions: from Mcl-1/Bim and Bcl-xL/Bim ELISA
[3] = biological target: Bcl-xL/Bim (Homo sapiens, UniProt Q07817); assay: Bcl-xL/Bim ELISA (GST-Bcl-xL binding to biotinylated Bim BH3 peptide)
[4] = system: cultured human cancer cells; assay: Induction of apoptosis in cultured human cancer cells; conditions: intact cell studies

Sequences of proteins named here, by UniProt entry; tags and fusion partners are left off.
UniProt Q07820, whole entry: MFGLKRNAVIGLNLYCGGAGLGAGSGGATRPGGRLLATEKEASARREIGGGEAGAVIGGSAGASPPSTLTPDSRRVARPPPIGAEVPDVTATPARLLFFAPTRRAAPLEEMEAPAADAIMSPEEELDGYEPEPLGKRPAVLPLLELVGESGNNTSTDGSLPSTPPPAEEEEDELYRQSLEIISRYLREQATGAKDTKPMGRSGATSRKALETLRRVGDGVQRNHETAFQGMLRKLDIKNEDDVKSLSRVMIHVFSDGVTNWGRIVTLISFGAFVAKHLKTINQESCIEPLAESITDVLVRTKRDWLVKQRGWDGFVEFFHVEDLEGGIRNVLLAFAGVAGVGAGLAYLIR
UniProt Q07817, whole entry: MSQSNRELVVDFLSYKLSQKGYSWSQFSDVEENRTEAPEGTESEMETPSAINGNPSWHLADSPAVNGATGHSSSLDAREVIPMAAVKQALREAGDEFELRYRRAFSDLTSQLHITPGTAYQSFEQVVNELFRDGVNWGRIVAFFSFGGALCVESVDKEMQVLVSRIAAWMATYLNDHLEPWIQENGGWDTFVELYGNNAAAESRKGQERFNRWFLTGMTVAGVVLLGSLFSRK

## O=C(c1ccccc1O)c1[nH]c(Cl)c(Cl)c1-n1c(C(=O)c2ccccc2O)cc(Cl)c1Cl (racemic) [(±)-1, (±)-marinopyrrole A]
[1]
  effect on levels of Mcl-1 and Bim and cleavage of caspase 3: able to decrease Mcl-1 and Bim and to cleave caspas 3

## O=C(c1ccccc1O)c1[nH]c(Cl)c(Cl)c1-n1c(C(=O)c2ccc(Cl)cc2O)cc(Cl)c1Cl
[2]
  selectivity profile Mcl-1 vs Bcl-xL in words: dual Mcl-1 and BclxL antagonists
[3]
  activity against Bcl-xL/Bim in words: slight increase in potency
[4]
  induction of apoptosis: induced apoptosis

## O=C(c1ccccc1O)c1[nH]c(Cl)c(Cl)c1-n1c(C(=O)c2ccc(F)cc2O)cc(Cl)c1Cl
[4]
  induction of apoptosis: induced apoptosis

## CCOC(=O)c1[nH]c(Cl)c(Cl)c1-n1c(C(=O)c2ccccc2O)cc(Cl)c1Cl
[2]
  selectivity profile Mcl-1 vs Bcl-xL in words: high selectivity for Bcl-xL/Bim over Mcl-/Bim

## O=C(c1ccccc1O)c1[nH]c(Cl)c(Cl)c1-n1c(C(=O)c2c(O)cccc2F)cc(Cl)c1Cl
[4]
  induction of apoptosis: induced apoptosis

## O=C(c1ccccc1O)c1[nH]c(Cl)c(Cl)c1-n1c(C(=O)c2cc(F)ccc2O)cc(Cl)c1Cl
[2]
  selectivity profile Mcl-1 vs Bcl-xL in words: dual Mcl-1 and BclxL antagonists
[4]
  induction of apoptosis: induced apoptosis
